pKi: −log10 of the molar value.
Target: T1, PI3Kδ (Homo sapiens, UniProt O00329)
T1 construct: Full length p110 subunits of PI3k α, β and δ, N-terminally labeled with polyHis tag; polyHis (N); made in house; host or cells: Sf9 insect cells (baculovirus)
Experiment: PI3Kδ Alphascreen assay
Assay type: biochemical

Protein sequences, listed by entry. Tags and fused reporters are not part of them. Lines headed by an entry give the natural chain unless they say otherwise; changes in a name come on top.
UniProt O00329: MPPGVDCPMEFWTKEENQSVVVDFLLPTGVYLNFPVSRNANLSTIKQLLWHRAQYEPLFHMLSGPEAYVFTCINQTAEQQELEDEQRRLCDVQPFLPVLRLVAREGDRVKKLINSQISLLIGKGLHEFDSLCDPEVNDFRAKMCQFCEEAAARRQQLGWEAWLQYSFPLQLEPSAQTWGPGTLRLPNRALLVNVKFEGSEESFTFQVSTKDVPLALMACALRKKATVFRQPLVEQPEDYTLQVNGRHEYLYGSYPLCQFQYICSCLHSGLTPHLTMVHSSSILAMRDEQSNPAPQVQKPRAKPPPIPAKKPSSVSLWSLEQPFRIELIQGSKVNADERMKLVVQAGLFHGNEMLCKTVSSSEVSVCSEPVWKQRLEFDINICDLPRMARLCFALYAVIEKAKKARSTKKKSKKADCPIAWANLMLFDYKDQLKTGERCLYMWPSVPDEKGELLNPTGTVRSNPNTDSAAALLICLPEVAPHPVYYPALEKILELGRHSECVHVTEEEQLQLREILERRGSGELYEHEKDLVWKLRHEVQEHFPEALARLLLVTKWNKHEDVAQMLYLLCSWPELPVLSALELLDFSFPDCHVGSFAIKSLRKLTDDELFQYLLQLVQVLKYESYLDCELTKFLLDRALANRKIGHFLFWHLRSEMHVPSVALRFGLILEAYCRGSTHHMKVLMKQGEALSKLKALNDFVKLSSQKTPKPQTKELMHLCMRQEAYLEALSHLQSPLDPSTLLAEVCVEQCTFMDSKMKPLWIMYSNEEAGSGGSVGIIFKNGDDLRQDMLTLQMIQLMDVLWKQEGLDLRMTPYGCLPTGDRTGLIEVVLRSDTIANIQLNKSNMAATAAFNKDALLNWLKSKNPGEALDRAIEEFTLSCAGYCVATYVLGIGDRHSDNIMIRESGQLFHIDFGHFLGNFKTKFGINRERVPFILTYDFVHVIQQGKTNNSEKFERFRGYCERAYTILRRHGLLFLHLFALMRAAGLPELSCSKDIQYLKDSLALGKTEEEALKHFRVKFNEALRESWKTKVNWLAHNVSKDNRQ

| pKi | SMILES |
| --- | --- |
| 8.88 | CC(Nc1ncnc(N)c1C#N)c1nc2ccc(F)cc2c(NCCN(C)C)c1-c1ccccc1 (stereo not drawn) |
| 7.26 | CC(Nc1nc[nH]c(=O)c1C#N)c1nc2ccc(F)cc2cc1-c1ccccn1 (stereo not drawn) [4-(1-(6-Fluoro-3-(pyridin-2-yl)quinolin-2-yl)ethylamino)-6-hydroxypyrimidine-5-carbonitrile] |
| 8.37 | CC(Nc1ncnc(N)c1C#N)c1nc2ccc(F)cc2cc1-c1ccccn1 (stereo not drawn) [4-Amino-6-(1-(6-fluoro-3-(pyridin-2-yl)quinolin-2-yl)ethylamino)pyrimidine-5-carbonitrile] |
